Reference: ChEMBL document CHEMBL1129426, “5-Lipoxygenase inhibitors: synthesis and structure-activity relationships of a series of 1-aryl-2H,4H-tetrahydro-1,2,4-triazin-3-ones” (J Med Chem, 1996)

How the values were obtained:
[1] = target: T1, Polyunsaturated fatty acid 5-lipoxygenase (Rattus norvegicus, UniProt P12527); experiment: Inhibition of 5-lipoxygenase catalysis in rat basophilic leukemia (RBL) cells by measuring 5-HETE product formation; type: cell-based, RBL-1
T1 sequence (P12527 whole entry): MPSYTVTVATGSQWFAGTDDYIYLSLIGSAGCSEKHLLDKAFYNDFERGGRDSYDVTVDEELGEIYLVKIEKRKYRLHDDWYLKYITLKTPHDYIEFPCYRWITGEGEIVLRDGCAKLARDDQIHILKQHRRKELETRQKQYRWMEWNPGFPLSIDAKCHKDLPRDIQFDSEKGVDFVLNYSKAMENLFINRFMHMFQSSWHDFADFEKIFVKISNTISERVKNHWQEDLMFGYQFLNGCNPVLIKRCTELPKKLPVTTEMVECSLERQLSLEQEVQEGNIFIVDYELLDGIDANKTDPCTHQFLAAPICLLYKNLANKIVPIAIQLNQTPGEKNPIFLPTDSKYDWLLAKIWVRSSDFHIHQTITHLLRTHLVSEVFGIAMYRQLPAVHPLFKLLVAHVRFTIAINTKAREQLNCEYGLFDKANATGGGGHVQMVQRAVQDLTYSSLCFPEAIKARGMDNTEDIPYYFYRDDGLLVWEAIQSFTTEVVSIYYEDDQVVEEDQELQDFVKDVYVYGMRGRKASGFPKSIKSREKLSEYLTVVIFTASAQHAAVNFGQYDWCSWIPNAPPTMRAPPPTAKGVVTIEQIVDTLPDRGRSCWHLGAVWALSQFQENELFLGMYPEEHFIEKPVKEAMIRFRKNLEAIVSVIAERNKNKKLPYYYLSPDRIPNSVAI
Summary of the method: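 Crude 20000g supernatant from sonicated rat basophilic leukemia cells used as 5-LO source; 5-HETE product formation measured.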

[2] = target: T2, Polyunsaturated fatty acid lipoxygenase ALOX12 (Homo sapiens) (UniProt P18054); experiment: Compound at 100 uM was tested in vitro for inhibition of 12-LO human platelet
T2 sequence (whole entry): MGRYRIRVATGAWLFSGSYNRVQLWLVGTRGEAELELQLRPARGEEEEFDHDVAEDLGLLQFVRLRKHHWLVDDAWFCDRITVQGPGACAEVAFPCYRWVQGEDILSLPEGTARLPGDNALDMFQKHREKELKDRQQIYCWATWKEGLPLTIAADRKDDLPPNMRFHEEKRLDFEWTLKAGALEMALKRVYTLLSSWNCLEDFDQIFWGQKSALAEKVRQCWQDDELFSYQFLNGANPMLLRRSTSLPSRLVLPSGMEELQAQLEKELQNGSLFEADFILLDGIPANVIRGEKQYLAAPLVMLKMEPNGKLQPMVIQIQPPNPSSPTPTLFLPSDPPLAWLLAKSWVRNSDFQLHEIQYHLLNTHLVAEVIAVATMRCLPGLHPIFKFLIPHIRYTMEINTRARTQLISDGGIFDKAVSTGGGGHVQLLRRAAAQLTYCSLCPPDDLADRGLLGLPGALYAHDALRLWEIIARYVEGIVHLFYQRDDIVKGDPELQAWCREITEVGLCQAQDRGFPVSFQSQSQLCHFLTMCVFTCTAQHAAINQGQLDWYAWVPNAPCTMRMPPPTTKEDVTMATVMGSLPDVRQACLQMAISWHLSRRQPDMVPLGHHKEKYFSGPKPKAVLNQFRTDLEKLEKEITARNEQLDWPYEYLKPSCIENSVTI

[3] = system: Seed linoleate lipoxygenase (Glycine max); experiment: Compound at 100 uM was tested in vitro for inhibition of 15-lipoxygenase soybean

| IC50 [1] [µM] | inhibition [2] [%] | inhibition [3] [%] | SMILES |
| --- | --- | --- | --- |
| 4.9 |  |  | O=C1NCCN(c2cccc(Br)c2)N1 |
|  | 14 | 14 | O=C1NCCN(c2ccccc2)N1 |
